“And” between values parts separate entries of the source, which are not always exact repeats. Equal entries are not always repeated.
Details: Liquid; for mass density: Vibrating tube method; for viscosity: Vibrating wire viscometry

OCCOCCOCCOCCO [tetraethylene glycol]
Details	mass density [kg/m3]	viscosity
323.15 K, 1580 kPa	1098.8	–
323.15 K, 2100 kPa	1099	–
323.15 K, 3000 kPa	1099.5	–
323.15 K, 5060 kPa	1100.5	–
323.15 K, 7010 kPa	1101.5	–
323.15 K, 9930 kPa	1102.9	–
323.15 K, 14900 kPa	1105.3	–
323.15 K, 19770 kPa	1107.6	–
323.15 K, 24760 kPa	1110	–
323.15 K, 29530 kPa	1112.1	–
323.15 K, 34470 kPa	1114.4	–
323.15 K, 39440 kPa	1116.5	–
323.15 K, 44180 kPa	1118.6	–
323.15 K, 49200 kPa	1120.6	–
323.15 K, 54100 kPa	1122.7	–
323.15 K, 58970 kPa	1124.6	–
323.15 K, 63800 kPa	1126.5	–
323.15 K, 68790 kPa	1128.4	–
333.15 K, 100 kPa	1090.1	–
333.15 K, 660 kPa	1090.4	–
333.15 K, 1170 kPa	1090.6	–
333.15 K, 1590 kPa	1090.8	–
333.15 K, 2110 kPa	1091.1	–
333.15 K, 3020 kPa	1091.6	–
333.15 K, 5110 kPa	1092.7	–
333.15 K, 6990 kPa	1093.7	–
333.15 K, 9900 kPa	1095.1	–
333.15 K, 14860 kPa	1097.7	–
333.15 K, 19730 kPa	1100	–
333.15 K, 23990 kPa	1102.6	–
333.15 K, 29600 kPa	1104.7	–
333.15 K, 34450 kPa	1107.1	–
333.15 K, 39370 kPa	1109.2	–
333.15 K, 44310 kPa	1111.5	–
333.15 K, 49120 kPa	1113.5	–
333.15 K, 54060 kPa	1115.6	–
333.15 K, 59100 kPa	1117.7	–
333.15 K, 63900 kPa	1119.7	–
333.15 K, 68790 kPa	1121.6	–
333.18 K, 210 kPa	–	10.52 mPa·s
333.18 K, 230 kPa	–	10.58 mPa·s and 10.49 mPa·s and 10.5 mPa·s
333.18 K, 580 kPa	–	10.53 mPa·s and 10.56 mPa·s
333.18 K, 590 kPa	–	10.55 mPa·s [middle of 4 runs]
333.18 K, 1210 kPa	–	10.62 mPa·s [middle of 4 runs]
333.18 K, 1990 kPa	–	10.67 mPa·s [middle of 4 runs]
333.18 K, 2000 kPa	–	10.65 mPa·s and 10.69 mPa·s and 10.64 mPa·s
333.18 K, 5100 kPa	–	10.91 mPa·s
333.18 K, 5110 kPa	–	10.89 mPa·s
333.18 K, 5120 kPa	–	10.95 mPa·s
333.18 K, 5130 kPa	–	10.9 mPa·s and 10.92 mPa·s
333.18 K, 8810 kPa	–	11.19 mPa·s
333.18 K, 8820 kPa	–	11.29 mPa·s [middle of 6 runs]
333.18 K, 9250 kPa	–	11.28 mPa·s and 11.35 mPa·s
333.18 K, 9260 kPa	–	11.29 mPa·s and 11.34 mPa·s
333.18 K, 9270 kPa	–	11.34 mPa·s and 11.33 mPa·s
333.18 K, 10450 kPa	–	11.4 mPa·s [middle of 5 runs]
333.18 K, 14500 kPa	–	11.77 mPa·s and 11.86 mPa·s
333.18 K, 14510 kPa	–	11.83 mPa·s [middle of 4 runs]
333.18 K, 14520 kPa	–	11.87 mPa·s and 11.77 mPa·s
333.18 K, 19940 kPa	–	12.33 mPa·s
333.18 K, 19950 kPa	–	12.3 mPa·s
333.18 K, 19960 kPa	–	12.3 mPa·s
333.18 K, 19970 kPa	–	12.38 mPa·s
333.18 K, 19980 kPa	–	12.33 mPa·s
333.18 K, 20000 kPa	–	12.37 mPa·s
333.18 K, 29210 kPa	–	13.27 mPa·s
333.18 K, 29240 kPa	–	13.21 mPa·s
333.18 K, 29260 kPa	–	13.21 mPa·s
333.18 K, 29280 kPa	–	13.24 mPa·s
333.18 K, 29330 kPa	–	13.27 mPa·s
333.18 K, 29350 kPa	–	13.24 mPa·s
333.18 K, 29790 kPa	–	13.44 mPa·s
333.18 K, 50350 kPa	–	15.38 mPa·s
333.18 K, 50360 kPa	–	15.39 mPa·s
333.18 K, 50380 kPa	–	15.45 mPa·s
333.18 K, 50390 kPa	–	15.42 mPa·s
333.18 K, 50400 kPa	–	15.36 mPa·s
333.18 K, 50440 kPa	–	15.38 mPa·s
333.18 K, 71140 kPa	–	17.9 mPa·s
333.18 K, 71160 kPa	–	17.9 mPa·s
333.18 K, 71260 kPa	–	17.88 mPa·s
343.15 K, 100 kPa	1082.1	–
343.15 K, 720 kPa	1082.5	–
343.15 K, 1090 kPa	1082.7	–
343.15 K, 1600 kPa	1082.9	–
343.15 K, 2060 kPa	1083.2	–
343.15 K, 3100 kPa	1083.7	–
343.15 K, 5040 kPa	1084.8	–
343.15 K, 6870 kPa	1085.8	–
343.15 K, 9930 kPa	1087.4	–
343.15 K, 14830 kPa	1090	–
343.15 K, 19790 kPa	1092.5	–
343.15 K, 24630 kPa	1095	–
343.15 K, 29580 kPa	1097.4	–
343.15 K, 34440 kPa	1099.7	–
343.15 K, 39430 kPa	1102.1	–
343.15 K, 44410 kPa	1104.4	–
343.15 K, 49170 kPa	1106.5	–
343.15 K, 54160 kPa	1108.6	–
343.15 K, 58970 kPa	1110.7	–
343.15 K, 63920 kPa	1112.8	–
343.15 K, 68720 kPa	1114.7	–
353.15 K, 100 kPa	1074.1	–
353.15 K, 560 kPa	1074.4	–
353.15 K, 1190 kPa	1074.7	–
353.15 K, 1660 kPa	1075	–
353.15 K, 2160 kPa	1075.3	–
353.15 K, 3100 kPa	1075.8	–
353.15 K, 5040 kPa	1076.9	–
353.15 K, 6910 kPa	1078	–
353.15 K, 10040 kPa	1079.7	–
353.15 K, 14770 kPa	1082.3	–
353.15 K, 19790 kPa	1085	–
353.15 K, 24570 kPa	1087.5	–
353.15 K, 29460 kPa	1090	–
353.15 K, 34560 kPa	1092.5	–
353.15 K, 39340 kPa	1094.8	–
353.15 K, 44310 kPa	1097.2	–
353.15 K, 49190 kPa	1099.5	–
353.15 K, 54020 kPa	1101.6	–
353.15 K, 59160 kPa	1103.9	–
353.15 K, 63870 kPa	1106	–
353.15 K, 68800 kPa	1108	–
362.6 K, 200 kPa	–	4.755 mPa·s and 4.776 mPa·s
362.6 K, 210 kPa	–	4.772 mPa·s [middle of 5 runs]
362.6 K, 220 kPa	–	4.782 mPa·s
362.6 K, 550 kPa	–	4.755 mPa·s and 4.773 mPa·s and 4.788 mPa·s
362.6 K, 560 kPa	–	4.783 mPa·s [middle of 5 runs]
362.6 K, 570 kPa	–	4.774 mPa·s
362.6 K, 1370 kPa	–	4.809 mPa·s and 4.792 mPa·s and 4.804 mPa·s
362.6 K, 1380 kPa	–	4.833 mPa·s and 4.837 mPa·s and 4.846 mPa·s
362.6 K, 2190 kPa	–	4.862 mPa·s
362.6 K, 2200 kPa	–	4.875 mPa·s
362.6 K, 2260 kPa	–	4.835 mPa·s [middle of 6 runs]
362.6 K, 6010 kPa	–	4.989 mPa·s
362.6 K, 6020 kPa	–	5.019 mPa·s [middle of 5 runs]
362.6 K, 10540 kPa	–	5.137 mPa·s
362.6 K, 10550 kPa	–	5.165 mPa·s [middle of 5 runs]
362.6 K, 15100 kPa	–	5.33 mPa·s
362.6 K, 15110 kPa	–	5.326 mPa·s [middle of 4 runs]
362.6 K, 19840 kPa	–	5.52 mPa·s [middle of 5 runs]
362.6 K, 29710 kPa	–	5.931 mPa·s
362.6 K, 29720 kPa	–	5.941 mPa·s [middle of 4 runs]
362.6 K, 29730 kPa	–	5.921 mPa·s
362.6 K, 50180 kPa	–	6.768 mPa·s
362.6 K, 70370 kPa	–	7.804 mPa·s
362.6 K, 70380 kPa	–	7.821 mPa·s
362.6 K, 70430 kPa	–	7.826 mPa·s
362.6 K, 70450 kPa	–	7.826 mPa·s
363.15 K, 100 kPa	1066.1	–
363.15 K, 650 kPa	1066.5	–
363.15 K, 1150 kPa	1066.7	–
363.15 K, 1550 kPa	1067	–
363.15 K, 2070 kPa	1067.2	–
363.15 K, 3090 kPa	1067.9	–
363.15 K, 5060 kPa	1069	–
363.15 K, 7010 kPa	1070.2	–
363.15 K, 9860 kPa	1071.8	–
363.15 K, 14820 kPa	1074.7	–
363.15 K, 19750 kPa	1077.4	–
363.15 K, 24740 kPa	1080.1	–
363.15 K, 29560 kPa	1082.6	–
363.15 K, 34540 kPa	1085.2	–
363.15 K, 39360 kPa	1087.6	–
363.15 K, 44280 kPa	1090.1	–
363.15 K, 49130 kPa	1092.3	–
363.15 K, 54040 kPa	1094.7	–
363.15 K, 59030 kPa	1097	–
363.15 K, 63900 kPa	1099.1	–
363.15 K, 68810 kPa	1101.6	–
